Screening data (PubChem)
UUG fidelity – modulators of yeast start codon fidelity, primary screen, whole organism, S. cerevisiae, single point, plate reader; S. cerevisiae UUG-firefly luciferase reporter, luminescence/redox ratio; activity score, % at 18.7 µM; 0.13% of 350,000 active; AID 602363, 2012;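 active = replicate mean at a twofold rise or more, about +100% in these data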;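 also: firefly luciferase made from a UUG start codon reports start codon fidelity; reporter light over untreated wells divided by growth signal over untreated wells; some hits fall short of that in this replicate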
PglD inh – inhibitors of Campylobacter jejuni PglD acetyltransferase. inhibition, % at 12.5 µM. AID 602405. purified PglD enzyme, DTNB colorimetric CoA detection. 360,000 compounds, 0.098% hits; in the data active = inhibition above about 16%, passing the limit was not always enough
Wnt bcat act – activates Wnt/beta-catenin signaling in a reporter cell assay; activator, plate reader; activation, % at 9.35 µM; 300,000 compounds, 1.2% hits; in the data active = activation above about 30%, passing the limit was not always enough;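 note: 0% = neutral control wells and 100% = positive control wells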
esBAF inh – blocks esBAF chromatin remodeling in mouse ES cells | Bmi1-luciferase knock-in reporter, 24 h; 100% = twice the neutral-well signal | reporter increase, % at 12.5 µM | 350,000 compounds, 2% hits | AID 602393; in the data active = activation above about 40%;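 note: 0% = median of the plate's neutral control wells and 100% = double that signal; a rise in the Bmi1 reporter signal indicates esBAF inhibition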
miR-122 sensor – miR-122 inhibition in Huh7 cells; activation (reporter increase), % at 12.5 µM; Huh7 miR-122 Renilla luciferase sensor, 48 h; neutral wells = 0, positive control = 100; 340,000 compounds, 0.3% hits;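 active = mean replicate activation score at least 90 and every replicate individually at or above 90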;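 note: higher luciferase means less miR-122 activity so hits act as miR-122 inhibitors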
MITF act – increases MITF-driven TRPM1 promoter luciferase signal; SK-MEL-5 TRPM1-promoter luciferase, 24 h; % of positive control, neutral wells = 0; activation, % at 12.5 µM; 300,000 compounds, 0.75% hits;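 active = mean activation of at least 80% with every replicate also reaching 80%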;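 note: 0% = neutral control wells and 100% = parthenolide positive control wells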
Active calls of the source: *; · = no result; [ ] = remark or other dose. This is a sample that favours compounds with a hit; in the whole collection about 2.8% have one here.

entry | SMILES | UUG fidelity | PglD inh | Wnt bcat act
1 | NC(=O)c1ccccc1N/C=C/C(=O)c1ccc(Cl)cc1 | -4.5 | -7.0 | 0.5
2 | CCOC(=O)c1ccc(N/C=C/C(=O)c2ccccc2)cc1 | · | · | 74.5*
3 | CCOC(=O)c1ccc(N/C=C/C(=O)C(C)(C)C)cc1 | · | · | 77.6*
4 | Cc1ccc(C(=O)/C=C/Nc2ccccc2C(N)=O)cc1 | -7.3 | -5.5 | 38.6*
5 | C[C@H](CO)N1C[C@H](C)[C@H](CN(C)Cc2ccccn2)Oc2ncc(-c3ccc(C#N)cc3)cc2C1=O | -32.1 | -2.3 | ·
6 | CO[C@@H]1CN(C)C(=O)c2ccc(NC(C)=O)cc2OC[C@H](C)N(CCc2ccccc2)C[C@H]1C | -1.3 | 1.4 | ·
7 | CCOC(=O)c1ccccc1N/C=C/C(=O)c1ccccc1 | -8.3 | -5.4 | 54.4*
8 | Cc1ccccc1NC(=O)/C(C#N)=C/c1ccc[nH]1 | -4.1 | 2.0 | 9.0
9 | N#C/C(=C\c1ccc[nH]1)C(=O)Nc1ccccc1[N+](=O)[O-] | 0.4 | 0.5 | 21.7
10 | C[C@H]1CN([C@@H](C)CO)C(=O)Cc2cc(NC(=O)Cc3cn(C)c4ccccc34)ccc2O[C@@H]1CN(C)C(=O)NC1CCCCC1 | -1.5 | 0.8 | ·
11 | C[C@@H]1CN([C@@H](C)CO)C(=O)c2cc(NS(=O)(=O)c3ccc(F)cc3)ccc2O[C@@H](C)CCCCO[C@@H]1CN(C)Cc1ccccc1 | 47.7 | 1.7 | ·
12 | C=CCOc1ccc2c(OC)c3ccoc3nc2c1OC | 1.6 | 7.4 | 35.4*
13 | CCOc1c2ccoc2nc2c(OC)c(OC)ccc12 | -15.5 | 1.0 | -0.4
14 | COc1cccc(NC(=O)NCc2ccccn2)c1 | -18.9 | -1.9 | 37.4*
15 | Cc1ccc(NC(=O)C(=O)NCc2ccccn2)cc1 | · | · | 20.0

entry | esBAF inh | miR-122 sensor | MITF act
1 | · | 11.5 | 17.5
2 | · | · | 65.4
3 | · | · | 56.8
4 | -1.5 | 2.9 | 0.9
5 | 1.9 | -5.2[16.7 µM] | ·
6 | -3.4 | 35.4[16.7 µM] | ·
7 | 1.9 | -1.4 | -6.9
8 | 24.1 | · | 9.8
9 | 62.8* | 1.0 | 4.9
10 | -4.2 | -2.7[16.7 µM] | ·
11 | -2.6 | -0.7[16.7 µM] | ·
12 | 48.2* | -2.5 | 26.5
13 | 21.5 | -3.4 | ·
14 | -5.3 | -2.0 | 2.7
15 | · | · | 85.0*

More structures.
entry | SMILES | UUG fidelity | PglD inh | Wnt bcat act
16 | O=C(NCc1ccccn1)Nc1cccc(NC(=O)NCc2ccccn2)c1 | -23.0 | 7.5 | 12.0
17 | O=C(NCc1ccccn1)c1ccc(Cl)cc1Cl | · | · | ·
18 | O=C(NCc1ccccn1)Nc1cccc(Cl)c1 | -30.3 | -4.0 | 38.0*
19 | O=C(NCCCNC(=O)c1ccc(Cl)cc1Cl)c1ccccn1 | -1.1 | 0.5 | -0.7
20 | COc1ccccc1-c1ccc2c(c1)O[C@@H](CN(C)C(=O)c1ccccc1)[C@@H](C)CN([C@@H](C)CO)S2(=O)=O | 19.0 | 0.7 | ·
21 | O=C(O)c1ccccc1-c1ccccc1C(=O)Nc1ccc2c(c1)CCC2 | -1.2 | 1.2 | 0.7
22 | O=C(Nc1ccc2c(c1)CCC2)c1ccccc1F | · | · | 30.1*
23 | CC1(c2ccc(NC(=O)c3ccccc3F)cc2)CC1(Cl)Cl (centres undefined) | -8.3 | -12.6 | 19.4
24 | O=C(COc1ccccc1F)Nc1ccc2c(c1)CCC2 | -6.3 | -2.5 | 43.2*
25 | COc1ccc(S(=O)(=O)Nc2cccc3c2O[C@@H](CN(C)C(=O)Nc2ccc(F)cc2)[C@@H](C)CN([C@@H](C)CO)C3=O)cc1 | 4.0 | 11.4 | ·
26 | Cc1noc(C)c1NC(=O)N(C)C[C@@H]1Oc2ccc(NS(=O)(=O)c3cn(C)cn3)cc2C(=O)N([C@H](C)CO)C[C@@H]1C | -10.4 | 0.8 | ·
27 | C=CCNc1cc(F)ccc1S(=O)(=O)NCC=C | -19.1 | 2.1 | -0.7
28 | C=CCNS(=O)(=O)c1cc(S(=O)(=O)NCC=C)c(OC)cc1OC | · | · | 0.0
29 | CC1CCCC(C)N1CCCNC(=O)c1ccc2nc(N3CCCCC3)sc2c1 (centres undefined) | -13.1 | 5.1 | -2.8
30 | CC1CCN(c2nc3ccc(C(=O)NCCCN4CCCCC4C)cc3s2)CC1 (centres undefined) | -41.2 | 1.0 | 0.8
31 | C[C@H](CO)N1C[C@H](C)[C@@H](CN(C)S(=O)(=O)c2ccc(Cl)cc2)Oc2c(NC(=O)c3cnccn3)cccc2C1=O | 8.6 | · | ·

entry | esBAF inh | miR-122 sensor | MITF act
16 | 20.6 | -7.2 | 54.2
17 | 52.5* | -0.1 | 34.5
18 | 39.2 | -0.6 | 136.0*
19 | 1.0 | · | -8.3
20 | 3.7 | -2.6[16.7 µM] | ·
21 | -1.2 | -2.9 | -4.4
22 | · | · | 33.5
23 | 62.9* | 0.8 | ·
24 | 18.2 | -2.8 | ·
25 | 0.3 | -2.9[16.7 µM] | ·
26 | -2.2 | 4.8[16.7 µM] | ·
27 | -8.5 | 95.5* | 4.7
28 | · | · | 10.7
29 | 72.1* | -9.6 | ·
30 | 72.2* | -4.2 | ·
31 | 2.4 | 0.2[16.7 µM] | ·

Some of the entries above in a different format.
18. O=C(NCc1ccccn1)Nc1cccc(Cl)c1
  UUG fidelity: -30.3; PglD inh: -4.0; Wnt bcat act: 38.0*; esBAF inh: 39.2; miR-122 sensor: -0.6; MITF act: 136.0*
19. O=C(NCCCNC(=O)c1ccc(Cl)cc1Cl)c1ccccn1
  UUG fidelity: -1.1; PglD inh: 0.5; Wnt bcat act: -0.7; esBAF inh: 1.0; miR-122 sensor: ·; MITF act: -8.3
20. COc1ccccc1-c1ccc2c(c1)O[C@@H](CN(C)C(=O)c1ccccc1)[C@@H](C)CN([C@@H](C)CO)S2(=O)=O
  UUG fidelity: 19.0; PglD inh: 0.7; Wnt bcat act: ·; esBAF inh: 3.7; miR-122 sensor: -2.6[16.7 µM]; MITF act: ·
